From ChEMBL document CHEMBL3997814, “Identification of novel inverse agonists of estrogen-related receptors ERRγ and ERRβ” (Bioorg Med Chem, 2017)

Target: T1, Steroid hormone receptor ERR2 (Homo sapiens, UniProt O95718)
T1 sequence (O95718 whole entry): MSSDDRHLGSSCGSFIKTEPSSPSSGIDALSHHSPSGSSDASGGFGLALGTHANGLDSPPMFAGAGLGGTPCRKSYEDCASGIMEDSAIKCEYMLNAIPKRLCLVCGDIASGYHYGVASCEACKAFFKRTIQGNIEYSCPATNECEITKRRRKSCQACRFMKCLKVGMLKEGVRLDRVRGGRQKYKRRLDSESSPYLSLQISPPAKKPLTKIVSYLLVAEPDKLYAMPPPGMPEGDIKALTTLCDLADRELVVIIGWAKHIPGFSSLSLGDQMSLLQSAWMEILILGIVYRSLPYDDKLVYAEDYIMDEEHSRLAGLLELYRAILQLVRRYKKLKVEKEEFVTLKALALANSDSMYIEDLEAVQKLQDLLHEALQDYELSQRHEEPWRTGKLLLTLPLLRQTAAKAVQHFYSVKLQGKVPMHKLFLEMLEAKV

IC50: 3.5 µM
SMILES: CN(C)CCOc1ccc(/C(=C(/CCCO)c2ccccc2)c2ccc(O)cc2)cc1
